The entries are a selection whose mix differs from that of the whole data set. Some tests of the compounds listed are not included; inactive here does not mean inactive elsewhere. Calls of active or inactive are those of the source.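 The calls were made as follows: active = versus positive control, 20 µM dose yields 30% or more activation; inactive = the rest.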
Test: activators of adaptive XBP1 UPR arm, primary screen, cell-based, CHO-XBP1 luciferase reporter, luminescence, uHTS (AID 463104);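 also: 100% = tunicamycin at 10 µg/mL and 0% = DMSO only wells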
Settings: IRE1-XBP1 UPR activation, at 20 µM, active compounds read high, percent of tunicamycin response, DMSO as zero
Outline: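 Material: IRE1-XBP1 luciferase reporter CHO line / Quantity: one thousand reporter cells per well / Buffer or medium: F12 with 10% serum / Compound: 20 µM single concentration, DMSO 1% / Times: 6 h treatment, 37 °C / Detection: Steady-Glo luciferase glow luminescence, 10 min after reagent addition / Benchmarks: tunicamycin high, DMSO low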

Row | SMILES | activation
1 | CN(C)C1CCCC1OC(=O)C(O)(c1ccccc1)c1ccccc1 (centres undefined) | inactive: -3.6%
2 | CN(C)c1ccc(C(=O)NCC2(N(C)C)CCCCC2)cc1 | inactive: -3.89%
3 | Cc1ccccc1C(=O)NCC1(N2CCCCC2)CCCCC1 | inactive: 3.28%
4 | COc1ccc(C(=O)NCC2(N(C)C)CCCCC2)cc1 | inactive: 0.78%
5 | O=C(NCC1(N2CCCCC2)CCCCC1)c1cccc(Br)c1 | inactive: -3.49%
6 | Cc1cc(C(=O)NCC2(N3CCCCC3)CCCCC2)ccc1[N+](=O)[O-] | inactive: 1.06%
7 | CCN1CCCC(OC(=O)C2(O)c3ccccc3C=Cc3ccccc32)C1 (centres undefined) | inactive: 0.66%
8 | O=C(NCC1(N2CCCCC2)CCCCC1)c1cc(F)c(F)cc1Cl | inactive: -0.74%
9 | C=CCN1CCN(CCOC(=O)C(O)(c2ccccc2)c2ccccc2)CC1 | inactive: 0.87%
10 | CN1[C@@H]2CC[C@H]1CC(OC(=O)C(O)(c1ccccc1)c1ccccc1)C2 (some centres undefined) | inactive: -4.06%
11 | O=C(NCC1(N2CCCCC2)CCCCC1)c1cc([N+](=O)[O-])ccc1Cl | inactive: -2.67%
12 | Cc1ccc(C(=O)NCC2(N3CCCCC3)CCCCC2)cc1 | inactive: -4.37%
13 | COc1cc(SC)ccc1C(=O)NCC1(N(C)C)CCCCC1 | inactive: -3.35%
14 | CCN(CC)CC(C)C(C)OC(=O)C(O)(c1ccccc1)c1ccccc1 (centres undefined) | inactive: -1.96%
15 | CC(C)N1C(=O)CC2(CCN(CCOC(=O)C(O)(c3ccccc3)c3ccccc3)CC2)C1=O | inactive: 1.83%
16 | O=C(OC1CN2CCC1CC2)C(CO)(c1ccccc1)c1ccccc1 (centres undefined) | inactive: -2.17%
17 | CC(C)Oc1ccc(C(=O)NCC2(N(C)C)CCCCC2)cc1 | inactive: 0.49%
18 | CN(C)c1cccc(C(=O)NCC2(N(C)C)CCCCC2)c1 | inactive: 1.49%
19 | COc1ccc(Br)c(C(=O)NCC2(N3CCCCC3)CCCCC2)c1 | inactive: -3.8%
20 | COc1cc(C(=O)NCC2(N(C)C)CCCCC2)c([N+](=O)[O-])cc1OC | inactive: -2.39%
21 | CN(C)C1(CNC(=O)c2ccc(Br)cc2)CCCCC1 | inactive: 0.08%
22 | O=C(NCC1(N2CCCCC2)CCCCC1)c1cccc(Cl)c1 | inactive: -2.99%
23 | COc1ccc(Cl)cc1C(=O)NCC1(N(C)C)CCCCC1 | inactive: -0.18%
24 | COc1cccc(C(=O)NCC2(N3CCCCC3)CCCCC2)c1 | inactive: -2.44%

From PubChem BioAssay AID463104 (Sanford-Burnham Center for Chemical Genomics, 2010)
